Drawing on PubChem BioAssay AID455 (Sanford-Burnham Center for Chemical Genomics, 2006), this text covers augmentation for 5 compounds.

This is a selection; strong and weak results do not stand in their true shares. Active and inactive are the calls of the source.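 The calls were made as follows: active = a compound raising TNF-alpha-driven VCAM-1 surface staining, with its hit status upheld on visual or statistical review; inactive = the rest, including hits rejected on review.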

A short description of this assay: enhancers of VCAM-1 display on endothelial cells, cell-based, plate reader, pooled HUVEC, TNFa stimulus (AID 455).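 Also: 0% = TNFa plus DMSO wells and 100% = a visually confirmed top hit.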 Particulars: HUVEC TNFa-induced VCAM-1 immunofluorescence, active compounds read high, 100% set by best visually verified hit,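 tested at 5 µM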.
Regarding `Cc1nn(-c2ccccc2)c2c1P(=O)(N1CCOCC1)N(C)C(c1ccccc1)=N2` (stereo not given), the augmentation was inactive: 0%. For `CCOP1(=S)c2c(C)nn(CCC#N)c2N=C(c2ccccc2F)N1C` (stereo not given) the value was inactive: 0%; for `O=C(COc1ccccc1)OC1CN2CCC1CC2` (stereo not given), inactive: 0%; for `COP1(=S)c2c(C)nn(CCC#N)c2N=C(c2ccc(F)cc2)N1C` (stereo not given), inactive: 0%. The same measure for `O=P(Nc1nccs1)(c1ccccc1)c1ccccc1`: inactive: 0%.
